Experimental data published in patent publication US12226414B2, “1-isopropyl-3-methyl-8-(pyridin-3-yl)-1,3-dihydro-2H-imidazo[4,5-c] cinnolin-2-one as selective modulators of ataxia telangiectasia mutated (ATM) kinase and uses thereof” (SUZHOU ZANRONG PHARMA LIMITED, priority 2018, dated 2025).

Sequences of proteins named here, by UniProt entry; tags and fusion partners are left off. A change or cut given only in a name is not applied to a line headed by its entry.
UniProt P08183, whole entry: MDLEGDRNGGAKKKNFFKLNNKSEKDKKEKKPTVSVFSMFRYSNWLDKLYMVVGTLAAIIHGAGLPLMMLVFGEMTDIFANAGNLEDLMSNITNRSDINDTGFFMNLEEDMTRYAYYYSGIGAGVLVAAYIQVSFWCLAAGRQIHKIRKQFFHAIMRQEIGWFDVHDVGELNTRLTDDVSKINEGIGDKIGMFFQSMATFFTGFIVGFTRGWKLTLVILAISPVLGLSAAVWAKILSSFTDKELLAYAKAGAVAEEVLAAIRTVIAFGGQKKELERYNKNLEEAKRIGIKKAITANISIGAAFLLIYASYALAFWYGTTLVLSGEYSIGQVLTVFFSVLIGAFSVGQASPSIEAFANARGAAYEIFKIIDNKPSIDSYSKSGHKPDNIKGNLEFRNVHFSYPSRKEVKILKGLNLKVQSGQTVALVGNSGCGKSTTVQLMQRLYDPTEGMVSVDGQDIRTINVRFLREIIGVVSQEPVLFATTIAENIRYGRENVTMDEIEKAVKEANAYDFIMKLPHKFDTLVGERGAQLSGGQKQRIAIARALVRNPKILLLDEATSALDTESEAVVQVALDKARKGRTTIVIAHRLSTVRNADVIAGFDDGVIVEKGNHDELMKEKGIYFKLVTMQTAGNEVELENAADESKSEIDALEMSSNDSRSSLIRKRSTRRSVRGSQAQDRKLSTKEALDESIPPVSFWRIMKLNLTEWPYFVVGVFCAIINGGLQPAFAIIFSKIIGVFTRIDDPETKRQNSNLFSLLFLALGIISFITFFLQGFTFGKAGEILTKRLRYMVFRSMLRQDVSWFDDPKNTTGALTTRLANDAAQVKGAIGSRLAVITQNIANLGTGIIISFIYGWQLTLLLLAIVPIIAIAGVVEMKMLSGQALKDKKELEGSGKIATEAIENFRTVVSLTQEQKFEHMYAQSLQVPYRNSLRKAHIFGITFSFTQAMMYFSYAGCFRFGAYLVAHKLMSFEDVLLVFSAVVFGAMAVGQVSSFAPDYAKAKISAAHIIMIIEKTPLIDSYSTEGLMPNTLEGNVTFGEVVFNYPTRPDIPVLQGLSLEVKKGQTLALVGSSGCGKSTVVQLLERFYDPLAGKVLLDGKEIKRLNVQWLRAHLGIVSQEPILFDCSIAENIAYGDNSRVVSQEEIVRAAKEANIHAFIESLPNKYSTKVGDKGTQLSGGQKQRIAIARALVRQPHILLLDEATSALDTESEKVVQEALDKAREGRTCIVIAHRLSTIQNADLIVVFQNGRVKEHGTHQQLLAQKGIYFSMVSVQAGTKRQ
UniProt Q06278: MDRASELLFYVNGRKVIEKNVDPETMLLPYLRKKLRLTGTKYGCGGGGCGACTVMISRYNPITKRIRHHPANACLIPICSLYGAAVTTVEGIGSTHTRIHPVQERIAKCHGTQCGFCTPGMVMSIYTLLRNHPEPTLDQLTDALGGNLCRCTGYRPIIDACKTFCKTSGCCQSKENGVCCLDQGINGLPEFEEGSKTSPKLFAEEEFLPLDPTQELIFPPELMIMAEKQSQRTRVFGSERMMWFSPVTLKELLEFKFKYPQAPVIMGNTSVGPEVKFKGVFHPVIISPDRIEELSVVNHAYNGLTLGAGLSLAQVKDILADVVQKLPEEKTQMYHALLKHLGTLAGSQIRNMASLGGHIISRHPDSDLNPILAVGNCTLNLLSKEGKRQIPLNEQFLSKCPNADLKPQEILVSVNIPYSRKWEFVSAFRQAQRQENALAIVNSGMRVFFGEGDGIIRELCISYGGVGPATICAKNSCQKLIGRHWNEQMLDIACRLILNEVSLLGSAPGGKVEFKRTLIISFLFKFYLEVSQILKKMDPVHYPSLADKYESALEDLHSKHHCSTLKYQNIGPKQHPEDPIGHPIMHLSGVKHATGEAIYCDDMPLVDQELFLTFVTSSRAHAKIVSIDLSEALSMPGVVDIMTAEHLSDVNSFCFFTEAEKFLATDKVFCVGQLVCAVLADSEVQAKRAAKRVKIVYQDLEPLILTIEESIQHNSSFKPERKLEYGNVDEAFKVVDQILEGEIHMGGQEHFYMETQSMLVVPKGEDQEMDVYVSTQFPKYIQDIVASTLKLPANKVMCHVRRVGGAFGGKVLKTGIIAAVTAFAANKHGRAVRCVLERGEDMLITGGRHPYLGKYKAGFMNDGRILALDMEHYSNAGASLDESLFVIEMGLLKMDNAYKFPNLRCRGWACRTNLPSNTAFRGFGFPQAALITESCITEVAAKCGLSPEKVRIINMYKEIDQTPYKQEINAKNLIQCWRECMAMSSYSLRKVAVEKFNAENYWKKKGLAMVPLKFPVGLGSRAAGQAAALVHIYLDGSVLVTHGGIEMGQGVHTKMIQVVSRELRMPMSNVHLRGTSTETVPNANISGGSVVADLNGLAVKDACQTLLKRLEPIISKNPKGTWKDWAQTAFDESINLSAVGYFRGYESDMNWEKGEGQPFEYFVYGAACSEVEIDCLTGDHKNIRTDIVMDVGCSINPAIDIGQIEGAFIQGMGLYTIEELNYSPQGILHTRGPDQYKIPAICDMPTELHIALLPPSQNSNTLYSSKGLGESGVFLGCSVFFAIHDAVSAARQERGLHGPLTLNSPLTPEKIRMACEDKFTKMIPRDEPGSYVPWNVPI

Columns and labels:
P-glycoprotein (Pgp) = P-glycoprotein (Pgp) (Homo sapiens (Human), UniProt P08183); test: MDCK-MDR1 Pgp assessment
aldehyde oxidase (AO) = aldehyde oxidase (AO) (Homo sapiens (Human), UniProt Q06278); test: Aldehyde oxidase assay in human liver cytosol

CN(C)CCCOc1ccc(-c2ccc3ncc4c(c3c2)n(C2CCOCC2)c(=O)n4C)cn1 [Ref. Comp. 2, AZD0156]
Pgp substrate (in words) (P-glycoprotein (Pgp)): a Pgp substrate
AO substrate (in words) (aldehyde oxidase (AO)): strong AO substrates
